PubChem BioAssay AID1224860 (National Center for Advancing Translational Sciences (NCATS), 2016)
The list shows a part of the results, in another mix than the full data. Records with an inconclusive call do not appear. Activity calls are given as the source filed them. The call rests on the fitted dose curve; in most records, active means well fitted cell-killing curve with a large enough effect; inconclusive means small, poorly fitted or top-dose-only effect; inactive means flat fitted curve, though single readings scatter.

Experiment: Compound cytotoxicity measured by an ATP content assay as a counter-screen for lead compounds in human iPSC derived neural progenitor cells (hNPCs)
Settings: human iPSC-derived NPC viability, ATP luminescence; at 46.1 µM (top of the series)
Protocol: National Center for Advancing Translational Sciences [NCATS] Johns Hopkins University School of Medicine Florida State University Assay Overview: Many compounds can cause cytotoxicity at high compound concentrations. […] The compound cytotoxicity may also cause side effects or toxicity in human. Thus, the compound cytotoxicity needs to be measured in each cell type and each compound incubation time - same as these in the compound screening assay. The compound cytotoxicity can be measured by cell viability assays such as the ATP content assay. We use an ATP content assay kit for cell viability measurement. It measures ATP content (level) in human iPSC derived neural progenitor cells (hNPCs) using a luminescence readout that is proportional to viable cell numbers. Decrease in the luminescence signal after the compound treatment indicates reduced cell viability and cell death caused by compound treatment.
Assay Protocol Summary: The medium for hNPCs consists of DMEM/F12, N2 supplement (ThermoFisher, Cat.# 17502048), NEAA (ThermoFisher, Cat. # 11140050), 2 ug/ml heparin, 2 uM cyclopamine, and B27 (ThermoFisher, Cat. # 17504044). The ATP content assay kit (PerkinElmer, Cat.# 6016731) was used to determine cell viability. […] After incubation at room temperature for 10 minutes, the luminescence intensity in assay plates was measured using a ViewLux plate reader (PerkinElmer). […]

Compound	activity, negative = cytotoxicity
C/C1=C2N=C(/C=C3N=C(/C(C)=C4\[N-][C@@](C)([C@@H]5N=C1[C@](C)(CCC(=O)NC[C@@H](C)OP(=O)([O-])O[C@H]1[C@@H](O)[C@@H](n6cnc7cc(C)c(C)cc76)O[C@@H]1CO)[C@H]5CC(N)=O)[C@@](C)(CC(N)=O)[C@@H]4CCC(N)=O)[C@@](C)(CC(N)=O)[C@@H]\3CCC(N)=O)C(C)(C)[C@@H]/2CCC(N)=O.[C-]#N.[Co+3]	inactive: -14.3%
CCOP(=O)(CC)Oc1ccc([N+](=O)[O-])cc1 (configuration not stated)	inactive: 4.11%
